Measured values: patent publication US20240327383A1 (priority 2021, published 2024)

Assays:
hNOPr = hNOPr (Homo sapiens, UniProt P41146); details: read-out: Opioid receptor affinity Ki hNOPr; [3H]-Nociceptin 0.5 nM
hKOPr = hKOPr (Homo sapiens, UniProt P41145); details: read-out: Opioid receptor affinity Ki hKOPr; [3H]-U69593 1.5 nM
hMOPr = hMOPr (Homo sapiens, UniProt P35372); details: summary of the binding panel MOP/NOP/KOP/DOP

Compound | Ki (hNOPr) [nM] | Ki (hKOPr) [nM] | selectivity and affinity for MOP receptor and KOP receptor (in words) (hMOPr)
Cc1ccc2c(c1)n(CCN1CCOCC1)c(=O)n2C1CCN([C@H]2CC[C@@H](C(C)C)CC2)CC1 | 329 | – | –
O=C1NCc2cc(Cl)c(Cl)cc2N1C1CCN(Cc2ccccc2Cl)CC1 | 13.6 | 0.75 | –
CC(C)C1CCC(N2CCC(N3C(=O)N(CCN4CCOCC4)Cc4cc(Cl)c(Cl)cc43)CC2)CC1 (centres unmarked) | 31.9 | 7.34 | high selectivity and high affinity for MOP receptor and KOP receptor
O=C1NCc2cc(Cl)c(Cl)cc2N1C1CCN(Cc2ccccc2F)CC1 | 26.3 | 0.75 | –
